Test results as given in ChEMBL document CHEMBL1268946, “Discovery of 2-substituted benzoxazole carboxamides as 5-HT3 receptor antagonists” (Bioorg Med Chem Lett, 2010).

Protein sequences, listed by entry. Tags and fused reporters are not part of them. Lines headed by an entry give the natural chain unless they say otherwise; changes in a name come on top.
UniProt Q12809: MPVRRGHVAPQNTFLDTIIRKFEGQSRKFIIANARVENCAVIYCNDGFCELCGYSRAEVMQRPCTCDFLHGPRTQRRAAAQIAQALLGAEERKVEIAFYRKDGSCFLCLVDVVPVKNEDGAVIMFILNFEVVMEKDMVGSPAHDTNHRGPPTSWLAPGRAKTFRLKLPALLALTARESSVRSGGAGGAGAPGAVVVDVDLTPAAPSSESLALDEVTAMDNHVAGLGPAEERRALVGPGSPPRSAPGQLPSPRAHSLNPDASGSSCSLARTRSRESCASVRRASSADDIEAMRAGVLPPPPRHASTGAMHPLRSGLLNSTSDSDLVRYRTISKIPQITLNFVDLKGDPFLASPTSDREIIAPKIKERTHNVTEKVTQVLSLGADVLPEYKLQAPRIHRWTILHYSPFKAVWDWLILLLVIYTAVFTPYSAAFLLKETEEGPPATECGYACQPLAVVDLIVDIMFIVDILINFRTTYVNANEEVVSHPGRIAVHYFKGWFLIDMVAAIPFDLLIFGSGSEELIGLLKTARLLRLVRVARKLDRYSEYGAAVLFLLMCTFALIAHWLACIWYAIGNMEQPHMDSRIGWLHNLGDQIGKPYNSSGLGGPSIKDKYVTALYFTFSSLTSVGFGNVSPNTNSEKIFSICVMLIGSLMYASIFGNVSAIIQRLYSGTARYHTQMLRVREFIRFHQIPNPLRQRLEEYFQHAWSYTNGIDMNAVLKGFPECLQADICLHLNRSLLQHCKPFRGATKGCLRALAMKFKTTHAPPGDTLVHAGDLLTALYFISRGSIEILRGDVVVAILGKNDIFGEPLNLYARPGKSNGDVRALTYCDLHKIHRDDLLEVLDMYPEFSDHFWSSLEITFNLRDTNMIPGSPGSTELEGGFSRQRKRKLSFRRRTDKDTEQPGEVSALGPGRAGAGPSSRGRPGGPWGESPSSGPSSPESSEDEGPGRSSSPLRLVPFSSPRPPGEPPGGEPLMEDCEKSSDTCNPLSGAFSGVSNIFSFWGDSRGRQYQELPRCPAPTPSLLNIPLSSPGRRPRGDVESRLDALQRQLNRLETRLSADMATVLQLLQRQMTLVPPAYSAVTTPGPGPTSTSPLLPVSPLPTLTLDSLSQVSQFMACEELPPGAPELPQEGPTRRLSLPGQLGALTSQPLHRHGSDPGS

Molecular target: Voltage-gated inwardly rectifying potassium channel KCNH2 (Homo sapiens, UniProt Q12809)
Assay: Inhibition of human ERG expressed in HEK cells by patch clamp technique

## Cc1nccn1CC1CCc2c(c3ccccc3n2C)C1=O (stereo unspecified) [ONDANSETRON]
  IC50: 400 nM
